Legend:
Wee-1 kinase = Wee-1 kinase (Homo sapiens (Human), UniProt P30291); assay: Inhibitory activity against Wee-1 kinase (ADP-GLO chemiluminescence); format: biochemical; conditions: read-out: IC50 for the inhibitory activity against Wee-1 kinase, 60 min reaction at room temperature
MIA PaCa-2 cells [1] = assay: In-vitro anti-proliferative activity on MIA PaCa-2 cells (intracellular ATP content); format: cell-based; conditions: read-out: IC50 Without GMC, anti-proliferative activity on MIA PaCa-2 cells, compound alone, 72 h after dosing
MIA PaCa-2 cells [2] = assay: In-vitro anti-proliferative activity in combination with gemcitabine (GMC) on MIA PaCa-2 cells; format: cell-based; conditions: read-out: IC50 GMC (20 nM), anti-proliferative activity on MIA PaCa-2 cells; in combination with 20 nM gemcitabine, 72 h after dosing, ATP content

By UniProt entry, the sequences of proteins in these tests, tags left out.
UniProt P30291, whole entry: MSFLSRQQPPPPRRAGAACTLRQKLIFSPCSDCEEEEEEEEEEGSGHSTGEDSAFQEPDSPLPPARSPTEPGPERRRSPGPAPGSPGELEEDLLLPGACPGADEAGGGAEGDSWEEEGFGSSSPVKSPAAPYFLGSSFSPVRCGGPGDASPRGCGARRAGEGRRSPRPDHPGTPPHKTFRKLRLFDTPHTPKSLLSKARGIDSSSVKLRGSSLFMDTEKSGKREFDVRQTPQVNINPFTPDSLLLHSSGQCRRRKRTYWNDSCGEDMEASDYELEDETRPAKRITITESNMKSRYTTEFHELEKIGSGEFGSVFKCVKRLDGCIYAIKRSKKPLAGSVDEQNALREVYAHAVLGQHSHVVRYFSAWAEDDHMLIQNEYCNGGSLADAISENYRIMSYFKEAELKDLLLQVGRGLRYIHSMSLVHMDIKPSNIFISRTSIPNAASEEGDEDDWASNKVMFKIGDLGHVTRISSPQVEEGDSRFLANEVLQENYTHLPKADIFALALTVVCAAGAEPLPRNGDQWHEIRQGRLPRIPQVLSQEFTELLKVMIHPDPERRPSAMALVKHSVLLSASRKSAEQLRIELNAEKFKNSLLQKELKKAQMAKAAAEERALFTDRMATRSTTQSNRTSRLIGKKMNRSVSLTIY

CN1Cc2cc(Nc3ncc4c(F)cn(-c5cncc(N=S(C)(C)=O)n5)c4n3)cc3c2C(CCC3)C1 (stereo not drawn)
IC50 (Wee-1 kinase): 2.08 nM
IC50 (MIA PaCa-2 cells [1]): 73 nM
IC50 (MIA PaCa-2 cells [2]): 1.6 nM

Reference: patent publication US20240182482A1, “FUSED CYCLIC COMPOUND AS WEE-1 INHIBITOR, PREPARATION METHOD THEREFOR AND USE THEREOF” (WIGEN BIOMEDICINE TECHNOLOGY (SHANGHAI) CO., LTD., priority 2021, published 2024)
